This note sets out measurements from patent USRE47739E1, “2-(pyridin-2-ylamino)-pyrido[2,3-D]pyrimidin-7-ones” (Warner-Lambert Company LLC, priority 2002, dated 2019).

This experiment has as its target Cdk2/Cyclin A (Homo sapiens, UniProt P24941). The experiment is described as follows: Assay for Inhibition of Cdk2/Cyclin A. Conditions: 12 mM ATP (so in the source), retinoblastoma protein substrate, 25° C., 15 minutes. The class given is biochemical. Here is the method: The assays were carried out as described below.
Assay for Inhibition of Cdk2/Cyclin A
Cdk2 enzyme assays for IC50 determinations and kinetic evaluation are performed as follows. 96-well filter plates (Millipore MADVN6550) are used. […] All components except the ATP are added to the wells, and the plate is placed on a plate mixer for 2 minutes. The reaction is initiated by addition of [^32P]ATP, and the plate is incubated at 25° C. for 15 minutes. The reaction is terminated by addition of 0.1 mL 20% TCA. The plate is kept at 4° C. for at least 1 hour to allow the substrate to precipitate. The wells are then washed five times with 0.2 mL 10% TCA, and ^32P incorporation is determined with a beta plate counter (Wallac Inc., Gaithersburg, Md.).

Structures can show the parent of a compound that is named as a salt. Some results are limits rather than exact numbers.

As a reminder, the IC50 is the midpoint of a concentration-inhibition curve. Low readings indicate greater potency in that assay, high ones weaker potency in that assay. Regarding `Cc1c(Br)c(=O)n(C2CCCC2)c2nc(Nc3ccccn3)ncc12` [Example 37, 6-bromo-8-cyclopentyl-5-methyl-2-(pyridin-2-ylamino)-8H-pyrido[2,3-d]pyrimidin-7-one], the half-maximal inhibitory concentration (IC50) was > 5 µM.
With `CC(C)n1c(=O)ccc2cnc(Nc3ccc(N4CCNCC4)cn3)nc21` [Example 57, 8-isopropyl-2-(5-piperazin-1-yl-pyridin-2-ylamino)-8H-pyrido[2.3-d]pyrimidin-7-one] the figure was > 5 µM.
As to `CC(=O)c1c(C)c2cnc(Nc3ccc(N4CC(C)NC(C)C4)cn3)nc2n(C2CCCC2)c1=O` (stereo not shown) [Example 95, 6-Acetyl-8-cyclopentyl-2-[5-(3,5-dimethyl-piperazin-1-yl)-pyridin-2-ylamino]-5-methyl-8H-pyrido[2,3-d]pyrimidin-7-one], the half-inhibitory concentration (IC50) was > 5 µM.
With `CCOCCc1cc2cnc(Nc3ccc(N4CCNCC4)cn3)nc2n(C2CCCC2)c1=O` [Example 108, 8-Cyclopentyl-6-(2-ethoxy-ethyl)-2-(5-piperazin-1-yl-pyridin-2-ylamino)-8H-pyrido[2,3-d]pyrimidin-7-one], the IC50 was > 5 µM.
With `CC(C)COc1cc2cnc(Nc3ccc(N4CCNCC4)cn3)nc2n(C2CCCC2)c1=O` [Example 22, 8-Cyclopentyl-6-isobutoxy-2-(5-piperazin-1-yl-pyridin-2-ylamino)-8H-pyrido[2.3-d]pyrimidin-7-one hydrochloride] the figure was > 5 µM.
Regarding `COCCN(CCOC)c1ccc(Nc2ncc3c(C)c(Br)c(=O)n(C4CCCC4)c3n2)nc1` [Example 54, 2-{5-[Bis-(2-methoxy-ethyl)-amino]-pyridin-2-ylamino}-6-bromo-8-cyclopentyl-5-methyl-8H-pyrido[2,3-d]pyrimidin-7-one], the 50% inhibitory concentration (IC50) was > 5 µM.
With `CCOCCOc1cc2cnc(Nc3ccc(N4CCNCC4)cn3)nc2n(C2CCCC2)c1=O` [Example 53, 8-Cyclopentyl-6-(2-ethoxy-ethoxy)-2-(5-piperazin-1-yl-pyridin-2-ylamino)-8H-pyrido[2,3-d]pyrimidin-7-one] the figure was > 5 µM.
With `CC(=O)c1c(C)c2cnc(Nc3ccc(N4CCC(O)CC4)cn3)nc2n(C2CCCC2)c1=O` [Example 77, 6-Acetyl-8-cyclopentyl-2-(4-hydroxy-3,4,5,6-tetrahydro-2H-[1,3′]bipyridinyl-6′-ylamino)-5-methyl-8H-pyrido[2,3-d]pyrimidin-7-one] the figure was > 5 µM; with `CC(=O)c1c(C)c2cnc(Nc3ccc(N4CCCNCC4)cn3)nc2n(C2CCCC2)c1=O` [Example 81, 6-Acetyl-8-cyclopentyl-2-(5-[1,4]diazepan-1-yl-pyridin-2-ylamino)-5-methyl-8H-pyrido[2,3-d]pyrimidin-7-one], > 5 µM.
To `Cc1c(Br)c(=O)n(C2CCCC2)c2nc(Nc3ccc(N4CCC(O)CC4)cn3)ncc12` [Example 75, 6-Bromo-8-cyclopentyl-2-(4-hydroxy-3,4,5,6-tetrahydro-2H-[1,3′]bipyridinyl-6′-ylamino)-5-methyl-8H-pyrido[2,3-d]pyrimidin-7-one] belongs > 5 µM.
Take `CC(=O)c1c(C)c2cnc(Nc3ccc(N4CCOCC4)cn3)nc2n(C2CCCC2)c1=O` [Example 100, 6-Acetyl-8-cyclopentyl-5-methyl-2-(5-morpholin-4-yl-pyridin-2-ylamino)-8H-pyrido[2,3-d]pyrimidin-7-one]: the 50% inhibitory concentration (IC50) is > 5 µM.
With `Cc1c(Br)c(=O)n(C2CCCC2)c2nc(Nc3ccc(N4CCN(C)CC4)cn3)ncc12` [Example 70, 6-Bromo-8-cyclopentyl-5-methyl-2-[5-(4-methyl-piperazin-1-yl)-pyridin-2-ylamino]-8H-pyrido[2,3-d]pyrimidin-7-one] the figure was > 5 µM; with `Cc1c(Br)c(=O)n(C2CCCC2)c2nc(Nc3ccc(N4CCCCC4)cn3)ncc12` [Example 103, 6-Bromo-8-cyclopentyl-5-methyl-2-(3,4,5,6-tetrahydro-2H-[1,3]bipyridinyl-6′-ylamino)-8H-pyrido[2,3-d]pyrimidin-7-one], > 5 µM.
With `CC(=O)c1c(C)c2cnc(Nc3ccc(N4CC(C)OC(C)C4)cn3)nc2n(C2CCCC2)c1=O` (stereo not shown) [Example 130, 6-Acetyl-8-cyclopentyl-2-[5-(2,6-dimethyl-morpholin-4-yl)-pyridin-2-ylamino]-5-methyl-8H-pyrido[2,3-d]pyrimidin-7-one] the figure was > 5 µM; with `Cc1c(Br)c(=O)n(C2CCCC2)c2nc(Nc3ccc(N4CCNCC4)cn3)ncc12` [Example 15, 6-Bromo-8-cyclopentyl-5-methyl-2-(5-piperizin-1-yl-pyridin-2-ylamino)-8H-pyrido[2,3-d]pyrimidin-7-one], > 5 µM.
To `CCOCc1cc2cnc(Nc3ccc(N4CCNCC4)cn3)nc2n(C2CCCC2)c1=O` [Example 116, 8-Cyclopentyl-6-ethoxymethyl-2-(5-piperazin-1-yl-pyridin-2-ylamino)-8H-pyrido[2,3-d]pyrimidin-7-one] belongs > 5 µM; to `O=c1c(Br)cc2cnc(Nc3ccccn3)nc2n1C1CCCC1` [Example 38, 6-Bromo-8-cyclopentyl-2-(Pyridin-2-ylamino)-8H-pyrido[2,3-]pyrimidin-7-one], > 5 µM.
For `CC(=O)c1c(C)c2cnc(Nc3ccc(N4CCC(N)C4)cn3)nc2n(C2CCCC2)c1=O` (stereo not shown) [Example 74, 6-Acetyl-2-[5-(3-amino-pyrrolidin-1-yl)-pyridin-2-ylamino]-8-cyclopentyl-5-methyl-8H-pyrido[2,3-d]pyrimidin-7-one], the IC50 was > 5 µM.
For `CC(=O)c1c(C)c2cnc(Nc3ccc(N4CCN(C)CC4)cn3)nc2n(C2CCCC2)c1=O` [Example 72, 6-Acetyl-8-cyclopentyl-5-methyl-2-[5-(4-methyl-piperazin-1-yl)-pyridin-2-ylamino]-8H-pyrido[2,3-d]pyrimidin-7-one], the half-maximal inhibitory concentration (IC50) was > 5 µM.
With `COCCOCc1cc2cnc(Nc3ccc(N4CCNCC4)cn3)nc2n(C2CCCC2)c1=O` [Example 112, 8-Cyclopentyl-6-(2-methoxy-ethoxymethyl)-2-(5-piperazin-1-yl-pyridin-2-ylamino)-8H-pyrido[2,3-d]pyrimidin-7-one] the figure was > 5 µM.
As for `O=c1c(CO)cc2cnc(Nc3ccc(N4CCNCC4)cn3)nc2n1C1CCCC1` [Example 29, 8-Cyclopentyl-6-hydroxymethyl-2-(5-piperazin-1-yl-pyridin-2-ylamino)-8H-pyrido[2,3-d]pyrimidin-7-one hydrochloride], the IC50 is > 5 µM.
As to `Cc1cc(=O)n(C2CCCC2)c2nc(Nc3ccc(N4CCNCC4)cn3)ncc12` [Example 84, 8-Cyclopentyl-5-methyl-2-(5-piperazin-4-yl-pyridin-2-ylamino)-8H-pyrido[2,3-d]pyrimidin-7-one], the IC50 was > 5 µM.
To `CC(=O)c1c(C)c2cnc(Nc3ccc(N4CCCCC4)cn3)nc2n(C2CCCC2)c1=O` [Example 105, 6-Acetyl-8-cyclopentyl-5-methyl-2-(3,4,5,6-tetrahydro-2H-[1,3′]bipyridinyl-6′-ylamino)-8H-pyrido[2,3-d]pyrimidin-7-one] belongs > 5 µM; to `CC(=O)c1cc2cnc(Nc3ccc(N4CCNCC4)cn3)nc2n(C2CCCC2)c1=O` [Example 33, 6-Acetyl-8-cyclopentyl-2-(5-piperazin-1-yl-pyridin-2-ylamino)-8H-pyrido[2.3-d]pyrimidin-7-one hydrochloride], > 5 µM; to `Cc1c(Br)c(=O)n(C2CCCC2)c2nc(Nc3ccc(N4CCOCC4)cn3)ncc12` [Example 98, 6-Bromo-8-cyclopentyl-5-methyl-2-(5-morpholin-4-yl-pyridin-2-ylamino)-8H-pyrido[2,3-d]pyrimidin-7-one], > 5 µM.
Consider `CCOC(=O)c1cc2cnc(Nc3ccc(N4CCNCC4)cn3)nc2n(C2CCCC2)c1=O` [Example 7, 8-Cyclopentyl-7-oxo-2-(5-piperazin-1-yl-pyridin-2-ylamino)-7,8-dihydro-pyrido[2,3-d]pyrimidine-6-carboxylic acid ethyl ester hydrochloride], for which the IC50 is > 5 µM.
To `Cc1c(Br)c(=O)n(C2CCCC2)c2nc(Nc3ccc(N4CC(C)NC(C)C4)cn3)ncc12` (stereo not shown) [Example 93, 6-Bromo-8-cyclopentyl-2-[5-(3,5-dimethyl-piperazin-1-yl)-pyridin-2-ylamino]-5-methyl-8H-pyrido[2,3-d]pyrimidin-7-one] belongs > 5 µM; to `CC(=O)c1c(C)c2cnc(Nc3ccc(N4CCNC(C)(C)C4)cn3)nc2n(C2CCCC2)c1=O` [Example 90, 6-Acetyl-8-cyclopentyl-2-[5-(3,3-dimethyl-piperazin-1-yl)-pyridin-2-ylamino]-5-methyl-8H-pyrido[2,3-d]pyrimidin-7-one], > 5 µM; to `CC(=O)c1c(C)c2cnc(Nc3ccccn3)nc2n(C2CCCC2)c1=O` [Example 82, 6-Acetyl-8-cyclopentyl-5-methyl-2-(pyridin-2-ylamino)-8H-pyrido[2,3-d]pyrimindin-7-one], > 5 µM.
On to `O=c1c(F)cc2cnc(Nc3ccc(N4CCNCC4)cn3)nc2n1C1CCCC1` [Example 18, 8-Cyclopentyl-6-fluoro-2-(5-piperazin-1-yl-pyridin-2-ylamino)-8H-pyrido[2,3-d]pyrimidin-7-one hydrochloride], for which the half-maximal inhibitory concentration (IC50) is > 5 µM.
Turning to `O=c1ccc2cnc(Nc3ccc(N4CCNCC4)cn3)nc2n1C1CC1` [Example 64, 8-cyclopropyl-2-(5-piperazin-1-yl-pyridin-2-ylamino)-8H-pyrido[2,3-d]pyrimidin-7-one], the IC50 is > 5 µM.
